This test addresses Cholecystokinin receptor type A (Rattus norvegicus, UniProt P30551). The test is described as follows: Binding activity against Cholecystokinin type A receptor from rat pancreas using [125]BH CCK-8s as radioligand.

Chains of the proteins cited; added tags and fusions are not shown.
UniProt P30551, whole entry: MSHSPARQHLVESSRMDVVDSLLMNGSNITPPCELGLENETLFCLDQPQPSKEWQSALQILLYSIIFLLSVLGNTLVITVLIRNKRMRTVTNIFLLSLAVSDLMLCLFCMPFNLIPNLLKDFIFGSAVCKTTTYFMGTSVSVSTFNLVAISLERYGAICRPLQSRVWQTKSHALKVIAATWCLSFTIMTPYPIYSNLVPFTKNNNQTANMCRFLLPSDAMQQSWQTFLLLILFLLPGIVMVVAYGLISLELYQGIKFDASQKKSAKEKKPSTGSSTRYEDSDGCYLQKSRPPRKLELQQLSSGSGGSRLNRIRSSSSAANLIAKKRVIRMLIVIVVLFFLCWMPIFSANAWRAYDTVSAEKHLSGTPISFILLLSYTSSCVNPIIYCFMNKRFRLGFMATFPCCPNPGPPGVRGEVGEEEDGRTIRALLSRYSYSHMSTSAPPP

As for `Cc1cccc(NC(=O)N[C@@H]2N=C(N3CC4CCC(CC4)C3)c3ccccc3N(C)C2=O)c1`, the IC50 was 1600 nM.

The record behind these values is ChEMBL document CHEMBL1127663, “High-affinity and potent, water-soluble 5-amino-1,4-benzodiazepine CCKB/gastrin receptor antagonists containing a cationic solubilizing group” (J Med Chem, 1994).
